The values that follow are results of earlier work, collected in patent US20250332109A1 (Veradermics, Incorporated, priority 2024, published 2025).

For the data set the following is noted: within 24 h after oral administration; hypertensive patients; cited from earlier work.

Structures are written as SMILES.

As to `Nc1cc(N2CCCCC2)nc(N)[n+]1[O-]` [minoxidil], the “radiolabeled drug and metabolites recovered from urine” value is “Over 80%”.
